# Measurements published in US7250397B2, “Antiarrhythmic peptides” (Zealand Pharma A/S, priority 2000, dated 2007).
# Tested on: alkaline phosphatase (ALP) activity of human osteoblasts
# Assay: Alkaline phosphatase (ALP) assay in human osteoblasts
# Format: cell-based
# Conditions: 5% O2, four days; 10^−11 to 10^−8 mol/l
# Procedure: Human osteblast cells (hOB): Cells were isolated from human bone marrow obtained by puncture of the posterior iliac spine of healthy volunteers (aged 20-36): 10-15 ml marrow material was collected in 15 ml PBS+Ca,Mg (Life Technologies, Cat.No. 14040) with 100 U/ml Heparin (Sigma, Cat.No. H-3149). The mononuclear fraction of the marrow was isolated on a Lymphoprep gradient (Nycomed Pharma, Cat.No. 1001967), by centrifugation at 2200 rpm for 30 min. After harvesting, the mononuclear fraction was washed once with culture medium and centrifuged at 1800 rpm for 10 min. Subsequently cells were counted and plated in culture medium at 8×10^6 cells/100 mm dish. hOB medium (all reagents obtained from Life Technologies): MEM w/o Phenol Red w/Glutamax (Cat.No. 041-93013) supplemented with 10% heat inactivated fetal calf serum (Cat.No. 10106) and 0.1% Penicillin/Streptomycin (Cat.No. 15140). […]
# • Day 1: Cells were plated in 96-well plates at a conc. of 8000 cells/well (hOB) or 3000 cells/well (ROS) in 200 μl normal culture medium. • Day 2: Medium was changed on the cells. • Day 4: (Day 3 for ROS): Cells were washed with 200 μl MEM, 0.1% BSA (Sigma, Cat.No. A-9418). […] Absorbance was measured using a plate reader at 405 nm. […]
# Finally, to assess the effect of Compound 2 on bone formation and osteoblast activity, we measured the effect of the compound on the alkaline phosphatase (ALP) activity of the cells. […]
substance,measurement,value
Ac-D-Tyr-D-Pro-D-4Hyp-Gly-D-Ala-Gly-NH2 [Compound 2],stimulation of ALP activity during hypoxia relative to normoxia,about 15%
